OPERA 2.9 data: water solubility values

Data: OPERA 2.9 data sets, kmansouri/OPERA on GitHub.

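The OPERA project collected these measurements from public sources as training and test data for property models. A listed value is a point estimate from one report or more. Conditions of the individual experiments are not part of the data. A value may pool stereoisomers or salt forms, and the file does not say which form was measured. Some entries may be limits or estimates that an upstream database listed as plain numbers.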

Solubility in water is on a log10 molar scale (set defined at 25 °C).
"n/a" marks a cell with nothing listed here.

compound | name | log S (log10 mol/L)
COS(=O)(=O)[O-].Cn1c(-c2ccccc2)cc(-c2ccccc2)[n+]1C | Difenzoquat metilsulfate | 0.326
CCC(=NOC/C=C/Cl)C1=C(O)CC(C2CCOCC2)CC1=O (stereo partly drawn) | Tepraloxydim | -2.9
COP(N)(=S)Oc1ccccc1C(=O)OC(C)C (stereo unspecified) | Isocarbophos | -3.62
C1CCC(NC2CCCCC2)CC1.CC(C)(F)C[C@H](N[C@@H](c1ccc(-c2ccc(S(C)(=O)=O)cc2)cc1)C(F)(F)F)C(=O)O | n/a | -3.506
CS(=O)(=O)c1ccc(C(=O)C2C(=O)CCCC2=O)c(Cl)c1COCC(F)(F)F | Tembotrione | -1.19
Brc1ccc(Oc2ccc(Br)cc2Br)cc1 | 2,4,4'-Tribromodiphenyl ether | -6.425
CC(C)OC(=O)OOC(=O)OC(C)C | Diisopropyl peroxydicarbonate | -3.83
CC(C)CC(=O)C1C(=O)c2ccccc2C1=O | 2-Isovaleryl-1,3-indanedione | -3.36
Brc1ccc(Oc2cc(Br)c(Br)cc2Br)c(Br)c1 | 2,2',4,4',5-Pentabromodiphenyl ether | -8.111
c1cc(N(CC2CO2)CC2CO2)ccc1Cc1ccc(N(CC2CO2)CC2CO2)cc1 (stereo unspecified) | 4,4'-Methylenebis(N,N-diglycidylaniline) | -4.662
Clc1cccc(-c2ccc(Cl)c(Cl)c2Cl)c1Cl | 2,2',3,3',4-Pentachlorobiphenyl | -7.05
CCCCSP(SCCCC)SCCCC | Merphos | -5.11
CCOP(=S)(OCC)Oc1ccc(Cl)cc1Cl | Dichlofenthion | -6.11
CCCCCCCC(=O)OOC(=O)CCCCCCC | Peroxide, bis(1-oxooctyl) | -7.612
Cc1c([N+](=O)[O-])cc2c(c1[N+](=O)[O-])C(C)(C)CC2(C)C | 1,1,3,3,5-Pentamethyl-4,6-dinitro-2,3-dihydro-1H-indene | -6.782
Cn1nnnc1SSc1nnnn1C | 5,5'-Dithiobis(1-methyltetrazole) | -1.759
O=[N+]([O-])c1ccc(Cl)c([N+](=O)[O-])c1 | 1-Chloro-2,4-dinitrobenzene | -4.403
Cc1c(O)cc([N+](=O)[O-])cc1[N+](=O)[O-] | 2-Methyl-3,5-dinitrophenol | -4.183
CCOc1nc(F)cc2nc(S(=O)(=O)Nc3c(Cl)cccc3Cl)nn12 | Diclosulam | -4.81
C[C@]12CC[C@H]3[C@@H](CCC4=CC(=O)CC[C@@]43C=O)[C@@H]1CC[C@@H]2O | 19-Aldotestosterone | -4.111
CON=C(C(=O)OC)c1ccccc1CON=C(C)c1cccc(C(F)(F)F)c1 | Trifloxystrobin | -5.83
CCCC1(CC)C(=O)NC(=O)NC1=O | 5-Ethyl-5-propylpyrimidine-2,4,6(1H,3H,5H)-trione | -1.491
CCCCCCCCOC(N)=O | Carbamic acid, octyl ester | -3.3
C=C(F)C(F)(F)F | 2,3,3,3-Tetrafluoropropene | -2.76
NC(=O)OCc1ccccc1 | Benzyl carbamate | -0.35
CC1(C)S[C@@H]2[C@H](N)C(=O)N2[C@H]1C(=O)O | 6-Aminopenicillanic acid | -1.944
O=P(O)(O)c1ccccc1 | Phenylphosphonic acid | 0.08
CCOC1=CC2=CC[C@@H]3[C@H](CC[C@]4(C)C(=O)CC[C@@H]34)[C@@]2(C)CC1 | 3-Ethoxy-androsta-3,5-dien-17-one | -7.14
CC(C)(C)OOC(C)(C)c1cccc(C(C)(C)OOC(C)(C)C)c1 | n/a | -6.927
CCC(C)(C)C(=O)OC1=C(c2ccc(Cl)cc2Cl)C(=O)OC12CCCCC2 | Spirodiclofen | -6.921
Oc1ccc(C(c2ccc(O)cc2)(C(F)(F)F)C(F)(F)F)cc1 | Bisphenol AF | -3.18
O=c1oc2ccccc2c(O)c1C1CC(c2ccc(OCc3ccc(C(F)(F)F)cc3)cc2)Cc2ccccc21 (stereo unspecified) | Flocoumafen | -5.719
OC(=NCCc1ncc(C(F)(F)F)cc1Cl)c1ccccc1C(F)(F)F | Fluopyram | -4.42
Brc1ccc(Br)c(-c2cc(Br)ccc2Br)c1 | 2,2',5,5'-Tetrabromobiphenyl | -8.06
CO/N=C(/C1=NOCCO1)c1ccccc1Oc1ncnc(Oc2ccccc2Cl)c1F | Fluoxastrobin | -5.3
O=S(=O)(Cl)c1ccccc1 | Benzenesulfonyl chloride | -1.885
CC(C)(C)C(=O)O[C@H]1CC[C@@]2(C)C(=C[C@H](O)[C@H]3[C@@H]4[C@@H](OC(=O)C(C)(C)C)CC(=O)[C@@]4(C)CC[C@@H]32)C1 | 7beta-Hydroxy-3beta,15alpha-dipivaloyloxy-5-androsten-17-one | -5.212
O=C1CN=C(c2ccccc2)c2cc([N+](=O)[O-])ccc2N1 | Nitrazepam | -3.8
O=P([O-])([O-])c1ccccc1.[Zn+2] | Phosphonic acid, P-phenyl-, zinc salt (1:1) | -4.459
OC(Cc1ccccc1Cl)(Cn1nc[nH]c1=S)C1(Cl)CC1 (stereo unspecified) | Prothioconazole | -3.06
OCC1C(CO)C2(Cl)C(Cl)=C(Cl)C1(Cl)C2(Cl)Cl (stereo unspecified) | n/a | -3.08
O=C(O)CC(CP1(=O)Oc2ccccc2-c2ccccc21)C(=O)O (stereo unspecified) | n/a | -2.814
Nc1ccc(OP(=S)(Oc2ccc(N)cc2)Oc2ccc(N)cc2)cc1 | O,O,O-Tris(4-aminophenyl) phosphorothioate | -5.309
FC(F)=C(F)OC(F)(F)OC(F)(F)F | 1-[Difluoro(trifluoromethoxy)methoxy]-1,2,2-trifluoroethene | -4.797
O=c1sc2ccccc2c(O)c1C1CC(c2ccc(-c3ccc(Br)cc3)cc2)Cc2ccccc21 (stereo unspecified) | Difethialone | -6.14
CCCCCCCCP(=O)(O)O | Octylphosphonic acid | -3.015
CC1([C@@]2(O)CC[C@H]3[C@@H]4C=CC5=CC(=O)C=C[C@]5(C)[C@H]4CC[C@@]32C)OCCO1 | 20,20-Ethylenedioxy-17-hydroxy-1,4,6-pregnatrien-3-one | -4.341

Extract of 6 entries:

compound | name | log S (log10 mol/L)
Nc1ccc(OP(=S)(Oc2ccc(N)cc2)Oc2ccc(N)cc2)cc1 | O,O,O-Tris(4-aminophenyl) phosphorothioate | -5.309
CC(C)OC(=O)OOC(=O)OC(C)C | Diisopropyl peroxydicarbonate | -3.83
CS(=O)(=O)c1ccc(C(=O)C2C(=O)CCCC2=O)c(Cl)c1COCC(F)(F)F | Tembotrione | -1.19
CC1(C)S[C@@H]2[C@H](N)C(=O)N2[C@H]1C(=O)O | 6-Aminopenicillanic acid | -1.944
C=C(F)C(F)(F)F | 2,3,3,3-Tetrafluoropropene | -2.76
COS(=O)(=O)[O-].Cn1c(-c2ccccc2)cc(-c2ccccc2)[n+]1C | Difenzoquat metilsulfate | 0.326